The source of these data is ChEMBL document CHEMBL2151039, “Discovery and development of α7 nicotinic acetylcholine receptor modulators” (J Med Chem, 2011).

Sequences of proteins named here, by UniProt entry; tags and fusion partners are left off.
UniProt P36544, whole entry: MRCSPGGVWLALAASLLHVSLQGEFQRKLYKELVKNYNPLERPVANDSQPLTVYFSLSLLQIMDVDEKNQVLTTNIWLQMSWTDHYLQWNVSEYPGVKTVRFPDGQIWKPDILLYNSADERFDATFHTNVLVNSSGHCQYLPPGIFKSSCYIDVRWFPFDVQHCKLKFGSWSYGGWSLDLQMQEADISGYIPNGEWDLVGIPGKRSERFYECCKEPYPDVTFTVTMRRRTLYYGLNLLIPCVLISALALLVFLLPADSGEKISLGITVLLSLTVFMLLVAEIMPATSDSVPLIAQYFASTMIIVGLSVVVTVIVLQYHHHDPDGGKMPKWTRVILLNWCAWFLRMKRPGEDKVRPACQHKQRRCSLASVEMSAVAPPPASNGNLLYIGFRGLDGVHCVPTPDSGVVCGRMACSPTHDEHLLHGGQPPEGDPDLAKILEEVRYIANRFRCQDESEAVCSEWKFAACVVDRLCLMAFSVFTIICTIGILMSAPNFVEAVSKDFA

Molecules are shown by their SMILES.

For assay [1], the species on record is Homo sapiens. The assay can be described thus: Selectivity ratio of alpha4beta2 nAChR to human alpha7 nAChR by ion flux assay.
In assay [2] the target is T1, Neuronal acetylcholine receptor subunit alpha-7 (Homo sapiens, UniProt P36544). As to the kind of experiment: Agonist activity at human recombinant alpha7 nAChR expressed in human GH3 cells by calcium flux assay relative to epibatidine. The format is functional, cell-based. A general note: Calcium flux is commonly read through the fluorescence of an indicator in the cells.

The species entered for assay [3] is Homo sapiens. The assay can be described thus: Selectivity ratio of alpha3beta4 nAChR to human alpha7 nAChR by ion flux assay.
The species named for assay [4] is Homo sapiens. The assay can be described thus: Selectivity ratio of Ki human 5HT3 receptor to Ki for human alpha7 nAchR.
Assay [5] deals with T1, Neuronal acetylcholine receptor subunit alpha-7. The assay can be described thus: Agonist activity at human alpha7 nAChR expressed in Xenopus oocytes assessed as induction of inward current relative to control. The format is functional, cell-based. The following applies: Oocyte.

As usually defined, the Emax is the maximal effect, on the per cent scale that the assay sets. In the case of `C[C@H](OC(=O)N[C@@H]1CN2CCC1CC2)c1ccccc1F`, the Selectivity ratio in the assay listed under Homo sapiens [1] and in the assay listed under Homo sapiens [3] was 200 throughout. Also, the Emax in assay [2] was found to be 85%; in assay [5] it was 55%. Besides, the Ratio Ki in the assay listed under Homo sapiens [4] worked out at 200.
